Assay results: patent publication US20240034795A1

Biological target: human FcRn (Cat. No. CT009-H08H, Lot No. LC120C3101, Sino biological) (human) (UniProt P55899)
Experiment: BLI (Fortebio Octet Red96), 100 nM FcRn loaded on HIS1K sensors, antibody 0-100 nM in solution

Substance: IgG1 (adalimumab) (antibody)
- Kd: 9.88 nM
- koff: 0.0077 s⁻¹
- kon: 780000 M⁻¹ s⁻¹
